Tests used:
Prothrombin (Bos taurus) = Prothrombin (Bos taurus) (UniProt P00735); assay: Inhibition of bovine thrombin-mediated blood clotting formation in presence of human fibrinogen
Prothrombin = Prothrombin (Bos taurus, UniProt P00735); assay: Inhibition of amidase activity of bovine thrombin using BANA as substrate after 15 to 40 mins
In short: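 Bovine thrombin (topical preparation), 44.44 NIH units per assay, with Nα-benzoyl-DL-arginine-p-nitroanilide (BANA) as substrate. Run at pH 8.1 and 37° for 15-40 min. Initial velocities were measured at two substrate concentrations across a range of inhibitor concentrations. Ki was obtained graphically from Dixon plots as a competitive constant; mean ± SD, n = 3.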

Row | Structure (SMILES) | IC50 (Prothrombin (Bos taurus)) | Ki (Prothrombin)
1 | Cl.N=C(N)c1ccc(COc2cccc3c(OCc4ccc(C(=N)N)cc4)cccc23)cc1 | 80 µM | 5.1 µM
2 | Cl.N=C(N)c1cccc(COc2cccc3c(OCc4cccc(C(=N)N)c4)cccc23)c1 | 20 µM | 2.9 µM
